Literature values, collected in patent publication US20130344157A1, “ENHANCEMENT OF THE EFFICACY OF THERAPEUTIC PROTEINS” (North-West University, priority 2007, published 2013).

Settings: peroral insulin; cited from earlier work

## insulin
  orally administered dose absorbed from the GI tract: less than 0.5%
  orally administered dose reaching the central bloodstream intact: less than 0.1%
